Measurements from PMC4332989 (Cellular signalling, 2014).
Where two headings read alike, the source gives them in different places.

The chains behind the UniProt entries cited, without tags or fusion partners.
UniProt P47746, whole entry: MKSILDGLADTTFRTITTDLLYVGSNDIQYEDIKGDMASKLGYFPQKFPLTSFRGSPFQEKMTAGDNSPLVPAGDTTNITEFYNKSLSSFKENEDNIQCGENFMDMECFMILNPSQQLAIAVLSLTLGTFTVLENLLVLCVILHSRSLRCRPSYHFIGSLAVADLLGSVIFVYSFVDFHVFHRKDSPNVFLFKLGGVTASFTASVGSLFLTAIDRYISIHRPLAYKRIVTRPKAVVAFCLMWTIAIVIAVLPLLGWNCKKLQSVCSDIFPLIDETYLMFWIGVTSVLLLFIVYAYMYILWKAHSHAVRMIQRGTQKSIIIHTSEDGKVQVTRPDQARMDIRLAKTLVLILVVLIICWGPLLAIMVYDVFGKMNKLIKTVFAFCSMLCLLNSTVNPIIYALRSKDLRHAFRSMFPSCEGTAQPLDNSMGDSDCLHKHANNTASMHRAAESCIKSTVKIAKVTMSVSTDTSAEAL

Legend:
CB1R coupling to Gαi1 = CB1R coupling to Gαi1 (Mus musculus, UniProt P47746)
CB1R = CB1R (Mus musculus, UniProt P47746); type: cell-based; conditions: for change in basal phosphoERK1/2 levels: vs basal
CB1R coupling to Gαi3 = CB1R coupling to Gαi3 (Mus musculus, UniProt P47746)
CB1R coupling to Gαo = CB1R coupling to Gαo (Mus musculus, UniProt P47746)
CB1R coupling to Gαi2 = CB1R coupling to Gαi2 (Mus musculus, UniProt P47746)
[1] = CRIP1a XS membranes, co-incubation with CP55940

Cc1c(C(=O)NN2CCCCC2)nn(-c2ccc(Cl)cc2Cl)c1-c1ccc(Cl)cc1 [SR141716A, N-(piperidin-1-yl)-5-(4-chlorophenyl)-1-(2,4-dichlorophenyl)-4-methyl-1H-pyrazole-3-carboxamide]
SR141716A-reversable constitutive activity, Gαi1 (CB1R coupling to Gαi1; 100 nM): No significant | effect on CP55940-stimulated [35S]GTPγS binding to Gαi1 (CB1R coupling to Gαi1; [1]): reversed | SR141716A-reversible constitutive phosphoERK1/2 compared with WT and Control (CB1R; CRIP1a KD cells, 10 nM, 5 min): enhancement | effect on CP55940-stimulated phosphoERK1/2 (CB1R; CRIP1a KD cells, 1 μM SR141716A): eliminated | effect on CP55940-stimulated phosphoERK1/2 (CB1R; CRIP1a XS cells, 1 μM SR141716A): completely blocked | effect on basal phosphoERK1/2 levels (CB1R; CRIP1a XS clones, 10 nM): insensitive | change in basal phosphoERK1/2 levels (CB1R; N18TG2 WT cells, 10 nM, 5 min): −17±4% | change in basal phosphoERK1/2 levels (CB1R; N18TG2 empty vector Control cells, 10 nM, 5 min): −20±6% | effect on CP55940-stimulated phosphoERK1/2 (CB1R; WT and Control cells, concurrent 1 μM SR141716A): completely abolished | inverse agonist response, Gαi3 (CB1R coupling to Gαi3; CRIP1a KD membranes, 100 nM): 54±7 % below basal | attenuation of the Gαi3 constitutive activation (CB1R coupling to Gαi3; CRIP1a XS membranes, 100 nM): resistant | reversal of constitutive CB1R-mediated Gαi3 activation (CB1R coupling to Gαi3; Control membranes, 100 nM, relative to basal): −43±8% | CP55940-stimulated [35S]GTPγS binding to Gαi3 during co-incubation with SR141716A (CB1R coupling to Gαi3; WT and Control membranes, 100 nM CP55940 plus SR141716A): absent | reversal of constitutive CB1R-mediated Gαi3 activation (CB1R coupling to Gαi3; WT membranes, 100 nM): −41±6 % relative to basal | decrease in constitutive binding of [35S]GTPγS to Gαo (CB1R coupling to Gαo; CRIP1a KD membranes, 100 nM, alone): 43±5 % below basal | inverse agonist response for Gαo (CB1R coupling to Gαo; CRIP1a over-expression (XS) membranes, 100 nM, alone): attenuated | decrease in constitutive binding of [35S]GTPγS to Gαo (CB1R coupling to Gαo; Control membranes, 100 nM, alone): 17±13 % below basal | decrease in constitutive binding of [35S]GTPγS to Gαo (CB1R coupling to Gαo; WT membranes, 100 nM, alone): 30±5 % below basal | effect on CP55940-promoted coupling between Gαo and CB1R (CB1R coupling to Gαo; all cell lines, co-incubation with 100 nM CP55940): attenuated | SR141716A-reversable constitutive activity, Gαi2 (CB1R coupling to Gαi2; 100 nM): No significant | effect on CP55940-stimulated [35S]GTPγS binding to Gαi2 (CB1R coupling to Gαi2; [1]): reversed
